Molecules are shown by their SMILES.

Protein sequences, listed by entry. Tags and fused reporters are not part of them.
UniProt P49137, whole entry, species assumed: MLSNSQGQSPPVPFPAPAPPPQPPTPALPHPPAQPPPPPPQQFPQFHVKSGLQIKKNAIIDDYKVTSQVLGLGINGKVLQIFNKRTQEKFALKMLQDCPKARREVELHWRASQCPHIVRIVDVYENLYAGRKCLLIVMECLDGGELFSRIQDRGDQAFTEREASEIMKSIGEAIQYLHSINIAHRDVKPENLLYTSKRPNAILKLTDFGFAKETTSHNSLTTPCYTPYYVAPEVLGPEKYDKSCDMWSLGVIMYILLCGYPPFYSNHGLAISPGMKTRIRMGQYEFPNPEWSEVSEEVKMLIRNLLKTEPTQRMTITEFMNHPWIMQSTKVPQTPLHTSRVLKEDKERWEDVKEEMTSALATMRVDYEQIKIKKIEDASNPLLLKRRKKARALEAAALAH

In patent publication US20050137220A1 (Pharmacia Corporation, priority 2003, published 2005) one finds IC50 data, which are given here for four molecules.

The assay addresses MK-2 (Homo sapiens, UniProt P49137). Nature of the assay: Determination of MK-2 IC50 (phosphorylation of HSP-peptide, anion exchange resin capture assay). As to conditions: additional values are replicate IC50 experiments; mixture of stereoisomers implied unless otherwise noted. It is filed as biochemical.
The IC50 is the concentration needed to halve the response being measured. Take `COc1ccc2[nH]c3c(c2c1)CC(CN)NC3=O` (stereo not shown): the concentration for half-maximal inhibition (IC50) stood at 1.32 µM. The figure for `CSc1ccc2[nH]c3c(c2c1)C1CCN(C1)C3C(=O)O` (stereo not shown) [Example 50] is 7.01 µM; for `COC(=O)C1c2[nH]c3ccc(OC)cc3c2CCN1C` (stereo not drawn) [Example 149, methyl 6-methoxy-2-methyl-2,3,4,9-tetrahydro-1H-beta-carboline-1-carboxylate] it is 149 µM; for `COC(=O)C1c2[nH]c3ccc(O)cc3c2CCN1C` (stereo not drawn) [Example 150, methyl 6-hydroxy-2-methyl-2,3,4,9-tetrahydro-1H-beta-carboline-1-carboxylate] it is 149 µM.
